The record followed here is patent publication EP0329295A1, “Renin inhibiting peptides with polar end groups” (THE UPJOHN COMPANY, priority 1988, dated 1989).

Amino acid sequences for entries named in this document (tags omitted). Residues count along the entry.
UniProt P00797, 67-406 limits assumed: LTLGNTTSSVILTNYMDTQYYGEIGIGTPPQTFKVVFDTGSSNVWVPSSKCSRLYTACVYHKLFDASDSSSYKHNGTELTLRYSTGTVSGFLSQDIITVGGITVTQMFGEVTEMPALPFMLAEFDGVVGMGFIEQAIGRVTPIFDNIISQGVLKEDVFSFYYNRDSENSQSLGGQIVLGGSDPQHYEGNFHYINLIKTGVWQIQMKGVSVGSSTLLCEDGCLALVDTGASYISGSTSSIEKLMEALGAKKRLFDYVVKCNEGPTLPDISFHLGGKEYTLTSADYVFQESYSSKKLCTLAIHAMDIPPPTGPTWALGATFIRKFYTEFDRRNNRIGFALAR

This experiment has as its target renin (Homo sapiens, UniProt P00797). Nature of the experiment: renin inhibitory activity (IC50), determined as described in EP 0173481, pages 103-105. Particulars: renin inhibition; values given in molar units. The source says:
The determination of renin inhibitory activity of the compounds of the present invention (ICso's) are well known to one of ordinary skill in the art, as, for example, described in published European application 0173481, published 5 March 1986, pages 103-105.

With `CC(=O)OC[C@H]1O[C@@H](N=[N+]=[N-])[C@@H](OC(C)=O)[C@@H](OC(C)=O)[C@@H]1OC(C)=O`, the IC50 amounted to 0.036 µM.
